Values of other authors in paper PMC12412453 (Toxicology, 2021).

Tests used:
[1] = reported findings; ref References column of Table 1; cited from earlier work
[2] = reported findings; ref References column of Table 1; cited from earlier work; remark: listed apart in the source

Question: Which “Genotoxicity assay findings in vivo” value [1] does the source give for `COc1cc2c(c(OC)c1OC)-c1ccc(OC)c(=O)cc1[C@@H](NC(C)=O)CC2` [Colchicine] here?
Answer: (+) for MN in BM and liver

Question: And the “Genotoxicity assay findings in vitro” value [2]?
Answer: (+) for MN, CA, MLA; (−) for comet
